Source: patent US20230052517A1, “ELECTROCHEMICAL SENSING METHODS AND APPARATUS FOR DETERMINING DRUG UPTAKE AND RETENTION IN CELLS” (priority 2020, published 2023)

System: Pseudomonas bacteria (PAO1 and PA262)
Details: strains drop-casted individually at macro-electrodes
Protocol: After 25 min of incubation, the bacteria suspension is centrifuged, cells are resuspended in PBS and drop-casted onto a 3-mm glassy carbon macroelectrode (see FIG. 1D). Other macroelectrode materials, such as gold, platinum, etc. could be employed in the same way. The electrode is then placed in a KCl solution and DPV is performed at a potential rage of zero to 1.0V. This potential range would be adjusted depending on the drug of interest.
When the electrode is placed in the KCl solution, various time intervals were applied before driving the oxidation reaction at the electrode.

SMILES: O=C(O)c1cn(C2CC2)c2cc(N3CCNCC3)c(F)cc2c1=O [ciprofloxacin]
- export current, resistant PA262 versus susceptible PAO1: the resistant strain appears to result in a higher current than the susceptible strain
